# According to publication PMC6350255 (Journal of medicinal chemistry, 2018):
# Test system: human β-cells (dispersed human pancreatic islets)
# Format: cell-based
smiles,measurement,value
"COc1ccc2c(c1)[nH]c1c(CO)nccc12 [Compound 2–2, 1-Hydroxymethyl-7-methoxy-9H-β-carboline]","human β-cell proliferation, Ki-67 immunolabeling",comparable to that of harmine
